Measured values: ChEMBL document CHEMBL2010688, “Tri- and tetrasubstituted pyrazole derivates: regioisomerism switches activity from p38MAP kinase to important cancer kinases” (J Med Chem, 2012)

By UniProt entry, the sequences of proteins in these tests, tags left out. Residues count along the entry.
UniProt P00533, 25-1210 L858R limits assumed: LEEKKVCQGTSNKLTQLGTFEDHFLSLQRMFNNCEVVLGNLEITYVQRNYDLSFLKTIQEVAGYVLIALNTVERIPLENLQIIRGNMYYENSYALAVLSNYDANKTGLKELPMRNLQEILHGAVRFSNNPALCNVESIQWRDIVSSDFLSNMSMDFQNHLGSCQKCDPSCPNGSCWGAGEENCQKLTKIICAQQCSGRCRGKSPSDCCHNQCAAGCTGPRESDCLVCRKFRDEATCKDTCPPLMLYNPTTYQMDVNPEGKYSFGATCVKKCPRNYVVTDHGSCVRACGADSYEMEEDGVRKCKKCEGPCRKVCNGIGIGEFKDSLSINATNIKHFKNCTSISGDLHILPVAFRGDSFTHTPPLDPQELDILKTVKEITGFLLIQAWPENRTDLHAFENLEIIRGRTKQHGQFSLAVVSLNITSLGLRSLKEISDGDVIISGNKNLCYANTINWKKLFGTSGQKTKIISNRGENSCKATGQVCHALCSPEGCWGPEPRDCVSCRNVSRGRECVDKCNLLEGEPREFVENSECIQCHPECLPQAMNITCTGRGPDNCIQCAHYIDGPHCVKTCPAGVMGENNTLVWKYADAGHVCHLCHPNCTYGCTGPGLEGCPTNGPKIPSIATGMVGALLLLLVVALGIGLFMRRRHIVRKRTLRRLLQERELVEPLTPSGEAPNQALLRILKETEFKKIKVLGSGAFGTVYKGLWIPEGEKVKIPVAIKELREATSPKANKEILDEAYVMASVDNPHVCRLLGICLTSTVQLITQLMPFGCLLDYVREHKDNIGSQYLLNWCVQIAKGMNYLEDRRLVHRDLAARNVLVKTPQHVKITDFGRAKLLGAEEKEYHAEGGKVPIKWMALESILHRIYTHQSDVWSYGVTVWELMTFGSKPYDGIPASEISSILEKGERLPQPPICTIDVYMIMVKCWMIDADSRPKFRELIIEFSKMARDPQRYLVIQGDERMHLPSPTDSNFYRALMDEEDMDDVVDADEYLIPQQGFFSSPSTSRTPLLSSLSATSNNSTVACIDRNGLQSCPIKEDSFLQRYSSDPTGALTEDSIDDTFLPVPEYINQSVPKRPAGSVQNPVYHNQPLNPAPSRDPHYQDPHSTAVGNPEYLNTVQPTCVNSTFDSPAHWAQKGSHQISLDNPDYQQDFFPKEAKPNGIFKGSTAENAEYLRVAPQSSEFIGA
UniProt P00533, whole entry: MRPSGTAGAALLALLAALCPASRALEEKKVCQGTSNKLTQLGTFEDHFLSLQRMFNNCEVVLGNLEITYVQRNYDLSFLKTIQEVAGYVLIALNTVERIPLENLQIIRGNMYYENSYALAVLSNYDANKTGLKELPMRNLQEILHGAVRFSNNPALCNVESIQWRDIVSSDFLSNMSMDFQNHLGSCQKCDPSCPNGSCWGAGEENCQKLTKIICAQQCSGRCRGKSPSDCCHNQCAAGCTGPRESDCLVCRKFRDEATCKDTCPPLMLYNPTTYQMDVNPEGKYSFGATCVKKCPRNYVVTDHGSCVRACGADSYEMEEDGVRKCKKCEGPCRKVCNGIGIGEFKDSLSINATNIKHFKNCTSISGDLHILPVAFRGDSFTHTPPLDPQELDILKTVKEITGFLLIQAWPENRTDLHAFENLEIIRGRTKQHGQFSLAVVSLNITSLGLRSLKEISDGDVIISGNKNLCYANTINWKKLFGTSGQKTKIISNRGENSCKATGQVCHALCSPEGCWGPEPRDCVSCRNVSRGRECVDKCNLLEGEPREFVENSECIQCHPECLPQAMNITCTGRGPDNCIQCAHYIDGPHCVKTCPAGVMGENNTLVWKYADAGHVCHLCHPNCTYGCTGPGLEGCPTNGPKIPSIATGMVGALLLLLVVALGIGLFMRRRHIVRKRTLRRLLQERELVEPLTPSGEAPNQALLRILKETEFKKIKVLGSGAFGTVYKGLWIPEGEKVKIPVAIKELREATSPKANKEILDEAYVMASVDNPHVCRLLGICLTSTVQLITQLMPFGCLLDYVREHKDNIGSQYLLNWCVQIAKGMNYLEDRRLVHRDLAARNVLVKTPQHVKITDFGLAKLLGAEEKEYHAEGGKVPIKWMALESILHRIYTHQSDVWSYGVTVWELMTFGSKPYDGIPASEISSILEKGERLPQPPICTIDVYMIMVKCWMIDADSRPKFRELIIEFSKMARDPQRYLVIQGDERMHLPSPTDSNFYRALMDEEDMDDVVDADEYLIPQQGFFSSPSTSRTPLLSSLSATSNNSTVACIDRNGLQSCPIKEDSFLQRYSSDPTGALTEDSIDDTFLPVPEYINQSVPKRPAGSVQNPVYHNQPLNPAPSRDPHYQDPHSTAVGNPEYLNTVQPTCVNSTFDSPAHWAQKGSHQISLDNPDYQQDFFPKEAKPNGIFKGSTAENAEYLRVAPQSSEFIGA

How the values were obtained:
[1] = molecular target: Epidermal growth factor receptor (Homo sapiens, UniProt P00533, L858R); assay: Inhibition of EGFR L858R mutant using poly(Glu,Tyr) as substrate assessed as [33P-gamma]-ATP incorporation after 60 mins by microplate scintillation counting; assay type: protein assay
[2] = molecular target: Epidermal growth factor receptor (Homo sapiens, UniProt P00533); assay: Inhibition of wild type EGFR using poly(Glu,Tyr) as substrate assessed as [33P-gamma]-ATP incorporation after 60 mins by microplate scintillation counting

Nc1c(-c2ccc(F)cc2)c(-c2ccncc2)nn1-c1c(Cl)cc(Cl)cc1Cl
IC50 [1]: 0.031 µM | IC50 [2]: 0.113 µM
